Measured values from ChEMBL document CHEMBL1134077, “Synthesis of potent and selective dopamine D(4) antagonists as candidate radioligands” (Bioorg Med Chem Lett, 2001).

Sequences of proteins named here, by UniProt entry; tags and fusion partners are left off.
UniProt P08173, whole entry: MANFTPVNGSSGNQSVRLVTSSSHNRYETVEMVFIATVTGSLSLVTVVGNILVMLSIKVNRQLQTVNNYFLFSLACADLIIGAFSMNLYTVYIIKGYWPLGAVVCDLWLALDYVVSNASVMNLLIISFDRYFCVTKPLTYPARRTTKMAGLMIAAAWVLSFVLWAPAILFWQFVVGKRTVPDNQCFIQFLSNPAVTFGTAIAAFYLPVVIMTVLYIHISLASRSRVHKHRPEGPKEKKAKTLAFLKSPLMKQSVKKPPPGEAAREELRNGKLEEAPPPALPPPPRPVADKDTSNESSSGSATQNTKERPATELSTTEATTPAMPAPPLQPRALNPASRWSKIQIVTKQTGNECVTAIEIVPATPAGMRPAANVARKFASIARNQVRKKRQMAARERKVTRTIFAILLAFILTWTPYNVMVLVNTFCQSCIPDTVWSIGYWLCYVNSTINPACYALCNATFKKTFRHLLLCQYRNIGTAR

Molecular target: Muscarinic acetylcholine receptor M4 (Homo sapiens, UniProt P08173)
Assay: Binding affinity to cloned Muscarinic acetylcholine receptor M4

FC(F)(F)c1ccc(N2CCN(Cc3c[nH]c4ncccc34)CC2)cc1
pKi: < 5.00

pKi: −log10 of the molar value.
